Ab-95 light chain CDR variants: yeast mating affinities

The target is the same throughout: PDVDLGDISGINAS, from the HR2 region of SARS-CoV-2 spike.

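Phage display of a naive human antibody library on the peptide gave the parent. The library (AAYL52) carries one to three amino acid substitutions per variant, with no insertions or deletions. The scFvs were displayed on barcoded MATa yeast, the peptide on MATalpha yeast. Pairs that bind mate more often; barcode pairs of the diploids are counted by sequencing. Scores were corrected for input abundance and mapped to Kd with protein pairs of known affinity run in the same pool. There are three technical replicates.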

Each scFv is VH, the linker GGGGSGGGGSGGGGS, VL, as in the parent Ab-95, and differs from it in the CDRs of the light chain only.
VH: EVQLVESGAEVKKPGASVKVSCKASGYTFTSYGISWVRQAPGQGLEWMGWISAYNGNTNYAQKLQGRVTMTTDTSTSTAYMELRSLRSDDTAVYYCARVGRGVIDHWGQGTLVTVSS
VL: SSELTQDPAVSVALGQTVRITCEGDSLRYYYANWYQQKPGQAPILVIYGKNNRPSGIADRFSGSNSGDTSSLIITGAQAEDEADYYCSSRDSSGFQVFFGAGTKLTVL

Changes read parent residue, position, new residue, counted from the first residue of the VL shown.
Scale: log10 of Kd in nM, estimated from mating counts; low values are strong binders.
A mean of the replicates is given; it leaves out those without a signal.
"n.d." means that the variant was in the library but no mating with the target was seen in that replicate; the authors take this as a sign of poor binding, and no number exists.
For reference, the parent read 2.31 as the reference entry and 2.25 as a member of this library.

{"changes": "Y31H+S88H+V97S", "log10 Kd, replicates": "n.d. / n.d. / n.d.", "mean, log10 nM": "n.d.", "signal with controls": "0/9"}
{"changes": "G24Y+L27F+K50R", "log10 Kd, replicates": "3.43 / 3.61 / n.d.", "mean, log10 nM": "3.52", "signal with controls": "5/9 (3.95)"}
{"changes": "E23P+G24D+S55A", "log10 Kd, replicates": "2.83 / 2.72 / n.d.", "mean, log10 nM": "2.78", "signal with controls": "1/9 (4.44)"}
{"changes": "D25P+G49Q+R90L", "log10 Kd, replicates": "n.d. / n.d. / n.d.", "mean, log10 nM": "n.d.", "signal with controls": "1/9 (4.38)"}
{"changes": "N51I+R53A+S89L", "log10 Kd, replicates": "5.16 / 4.14 / n.d.", "mean, log10 nM": "4.65", "signal with controls": "3/9 (4.28)"}
{"changes": "Y30G+Q96E+F98A", "log10 Kd, replicates": "2.34 / 2.41 / 2.03", "mean, log10 nM": "2.26", "signal with controls": "4/9 (4.00)"}
{"changes": "R28S+Y29K+N33I", "log10 Kd, replicates": "3.37 / 2.78 / n.d.", "mean, log10 nM": "3.07", "signal with controls": "3/9 (3.60)"}
{"changes": "Y29F+N51L+Q96H", "log10 Kd, replicates": "3.91 / 3.69 / n.d.", "mean, log10 nM": "3.80", "signal with controls": "5/9 (3.58)"}
{"changes": "R90C+D91A+S93D", "log10 Kd, replicates": "3.13 / 3.71 / 3.73", "mean, log10 nM": "3.52", "signal with controls": "1/9 (3.84)"}
{"changes": "D25T+N33T+F98R", "log10 Kd, replicates": "2.39 / 2.43 / 1.18", "mean, log10 nM": "2.00", "signal with controls": "3/9 (4.46)"}
{"changes": "R53M+G94D+V97C", "log10 Kd, replicates": "n.d. / n.d. / n.d.", "mean, log10 nM": "n.d.", "signal with controls": "0/9"}
{"changes": "G24I+N33A+G94L", "log10 Kd, replicates": "3.60 / 2.95 / 3.49", "mean, log10 nM": "3.35", "signal with controls": "4/9 (3.96)"}
{"changes": "E23V+R28G+R53T", "log10 Kd, replicates": "3.21 / 3.95 / 2.38", "mean, log10 nM": "3.18", "signal with controls": "3/9 (4.33)"}
{"changes": "R28N+Y31Q+S93P", "log10 Kd, replicates": "2.19 / 2.79 / 1.44", "mean, log10 nM": "2.14", "signal with controls": "2/9 (3.84)"}
{"changes": "Y30M+D91G+G94Q", "log10 Kd, replicates": "1.90 / 1.83 / 1.72", "mean, log10 nM": "1.82", "signal with controls": "6/9 (3.90)"}
{"changes": "E23K+A32P+R90V", "log10 Kd, replicates": "2.81 / 3.17 / 3.06", "mean, log10 nM": "3.01", "signal with controls": "1/9 (4.02)"}
{"changes": "S26G+N33Q+N52D", "log10 Kd, replicates": "3.80 / n.d. / n.d.", "mean, log10 nM": "3.80", "signal with controls": "0/9"}
{"changes": "R28C+S92V+S93K", "log10 Kd, replicates": "2.95 / 4.03 / 2.91", "mean, log10 nM": "3.30", "signal with controls": "6/9 (4.24)"}
{"changes": "G24W+Y30V+S88K", "log10 Kd, replicates": "3.64 / n.d. / n.d.", "mean, log10 nM": "3.64", "signal with controls": "1/9 (3.76)"}
{"changes": "Y29F+S88D+G94I", "log10 Kd, replicates": "n.d. / n.d. / 3.81", "mean, log10 nM": "3.81", "signal with controls": "1/9 (5.34)"}
{"changes": "Y31D+G49W+K50F", "log10 Kd, replicates": "n.d. / 3.94 / 3.76", "mean, log10 nM": "3.85", "signal with controls": "3/9 (3.65)"}
{"changes": "G49D+S93Y+F95Q", "log10 Kd, replicates": "2.98 / 2.95 / 3.76", "mean, log10 nM": "3.23", "signal with controls": "0/9"}
{"changes": "D25R+S26V+N52W", "log10 Kd, replicates": "n.d. / n.d. / n.d.", "mean, log10 nM": "n.d.", "signal with controls": "3/9 (3.72)"}
{"changes": "D25Y+Y30S+R53N", "log10 Kd, replicates": "2.55 / 2.52 / 1.95", "mean, log10 nM": "2.34", "signal with controls": "5/9 (3.84)"}
{"changes": "G24R+N51K+D91N", "log10 Kd, replicates": "n.d. / n.d. / n.d.", "mean, log10 nM": "n.d.", "signal with controls": "4/9 (3.94)"}
{"changes": "D25F+L27N", "log10 Kd, replicates": "2.75 / 2.91 / 3.00", "mean, log10 nM": "2.89", "signal with controls": "1/9 (3.26)"}
{"changes": "E23C+R28F+R53L", "log10 Kd, replicates": "4.31 / 2.78 / 4.28", "mean, log10 nM": "3.79", "signal with controls": "2/9 (4.28)"}
{"changes": "Y31R+P54Q+S92K", "log10 Kd, replicates": "2.75 / 2.26 / 2.22", "mean, log10 nM": "2.41", "signal with controls": "2/9 (4.21)"}

As a blank, each scFv also met three strains without target: over library AAYL52, 28% of these pairings were detected, typically at 3.91 and seldom below 2.90. For each scFv, signals with the empty controls are counted beside the result, with their mean in brackets.

Values reported by Engelhart et al. 2022, doi:10.1038/s41597-022-01779-4 (FLAb copy).